Source: US20090305993A1, “METHODS AND COMPOSITION FOR THE TREATMENT OF GASTROINTESTINAL DISORDERS” (IRONWOOD PHARMACEUTICALS, INC., priority 2006, published 2009)

Target: T1, carboxypeptidase A (Homo sapiens, UniProt P15085)
T1 sequence (P15085 111-419): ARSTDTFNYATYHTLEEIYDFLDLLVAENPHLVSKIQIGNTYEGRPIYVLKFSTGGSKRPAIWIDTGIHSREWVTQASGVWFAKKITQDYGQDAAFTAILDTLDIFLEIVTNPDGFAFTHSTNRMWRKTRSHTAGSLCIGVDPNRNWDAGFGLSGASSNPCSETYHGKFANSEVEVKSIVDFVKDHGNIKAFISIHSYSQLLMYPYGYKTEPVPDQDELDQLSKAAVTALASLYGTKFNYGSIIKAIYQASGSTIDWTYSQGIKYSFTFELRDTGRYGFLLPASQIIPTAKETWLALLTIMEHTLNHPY
Assay: in vitro proteolytic stability, carboxypeptidase A

N-CBZ-Glycine-Glycine-Leucine [Z-Gly-Gly-Leu, reference compound]
proteolysis by carboxypeptidase A (37° C., FIG. 13a, 13b): proteolyzed
average calculated concentration of parent (T0 control and T0 samples): 7.1 (+/−0.30) μg/mL
calculated concentrations of the products (T3 h and T24 h samples): 2.2 (+/−0.010) μg/mL
parent (precursor mass) (T3 h and T24 h samples): No precursor mass was detected
